pKi: −log10 of the molar value.
Experiments:
[1] = target: Mu-type opioid receptor (Cavia porcellus) (UniProt P97266); conditions: Ileum, filed as agonist
[2] = target: Mu-type opioid receptor (Rattus norvegicus, UniProt P33535); test: Binding affinity at Opioid receptor mu 1 by displacement of [3H]DAMGO in rat brain membrane; format: cell membranes

Chains of the proteins cited; added tags and fusions are not shown.
UniProt P97266, whole entry: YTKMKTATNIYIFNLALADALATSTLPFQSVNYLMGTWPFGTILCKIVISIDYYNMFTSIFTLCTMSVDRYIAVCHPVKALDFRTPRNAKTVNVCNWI
UniProt P33535, whole entry: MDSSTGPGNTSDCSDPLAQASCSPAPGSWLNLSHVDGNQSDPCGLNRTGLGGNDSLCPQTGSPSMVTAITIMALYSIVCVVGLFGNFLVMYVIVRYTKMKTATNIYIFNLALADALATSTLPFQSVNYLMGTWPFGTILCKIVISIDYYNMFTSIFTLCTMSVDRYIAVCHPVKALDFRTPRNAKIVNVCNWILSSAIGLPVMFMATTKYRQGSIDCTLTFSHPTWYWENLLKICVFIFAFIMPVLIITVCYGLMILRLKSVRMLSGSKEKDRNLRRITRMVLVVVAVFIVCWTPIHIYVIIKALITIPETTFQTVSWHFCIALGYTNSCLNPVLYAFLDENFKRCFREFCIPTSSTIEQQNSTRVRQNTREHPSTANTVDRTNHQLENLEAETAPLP

Row | Compound | Ke [1] | pKi [2]
1 | Oc1ccc2c3c1O[C@H]1c4ncc(-c5ccc(Cl)cc5)cc4C[C@@]4(O)[C@@H](C2)N(CC2CC2)CC[C@]314 | Agonist | –
2 | C[C@@H](NC(=O)[C@@H](N)Cc1ccc(O)cc1)C(=O)NCC(=O)N(C)[C@@H](Cc1ccccc1)C(=O)NCCO [DAMGO] | – | 8.21
